22 compounds from patent US9073876B2, “Flap modulators” (JANSSEN PHARMACEUTICA NV, priority 2013, dated 2015) can be followed below.

Sequences of proteins named here, by UniProt entry; tags and fusion partners are left off. A change or cut given only in a name is not applied to a line headed by its entry.
UniProt P20292: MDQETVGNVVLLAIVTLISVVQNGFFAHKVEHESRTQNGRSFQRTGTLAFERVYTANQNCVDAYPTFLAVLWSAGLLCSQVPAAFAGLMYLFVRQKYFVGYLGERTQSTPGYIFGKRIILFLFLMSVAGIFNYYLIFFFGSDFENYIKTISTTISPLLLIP

For the experiment, the target named is human FLAP (Homo sapiens (Human), UniProt P20292). The experiment in a line: FLAP binding assay (HTRF). As to conditions: human FLAP-containing membranes, HTRF format; average of two assay plates, duplicates; read-out: FLAP Binding wild type HTRF Ki. As to the method:
The ability of the compounds of the present invention to treat a FLAP-mediated disease and/or disorder, or associated symptoms or complications thereof, was determined using the following procedures. Binding assay data represent the average value obtained from two different assay plates, with samples run in duplicate on each plate. Human whole blood assay data represent a single replicate on an assay plate using whole blood from at least one healthy donor.
Data are expressed as a HTRF ratio.
(In general: TR-FRET usually uses a lanthanide donor and a delayed reading to cut background.)
In the case of `Nc1cnc(-c2ccc(C3CCC3)c(OCC(O)Cn3cccn3)c2F)cn1` (racemic) [Example 60, racemic 1-(3-(5-Aminopyrazin-2-yl)-6-cyclobutyl-2-fluorophenoxy)-3-(1H-pyrazol-1-yl)propan-2-ol], the inhibition constant Ki – broadly, a measure of affinity in units of concentration, obtained from inhibition or displacement – was 116 nM.

Take `N#Cc1cnn(CC(O)COc2c(C3CCC3)ccc(-c3cnc(N)cn3)c2F)c1N` (racemic) [Example 65, racemic 5-Amino-1-(3-(3-(5-aminopyrazin-2-yl)-6-cyclobutyl-2-fluorophenoxy)-2-hydroxypropyl)-1H-pyrazole-4-carbonitrile]: the Ki worked out at 18 nM.

`Nc1cnc(-c2ccc(C3CCC3)c(OCC(O)CNc3ccn[nH]3)c2F)cn1` (racemic) [Example 67, racemic 1-((1H-Pyrazol-5-yl)amino)-3-(3-(5-aminopyrazin-2-yl)-6-cyclobutyl-2-fluorophenoxy)propan-2-ol]: the Ki worked out at 176 nM.

Regarding `CC(C)CNCC(O)COc1c(C2CCC2)ccc(-c2cnc(N)cn2)c1F` (racemic) [Example 253, 1-(3-(5-aminopyrazin-2-yl)-6-cyclobutyl-2-fluorophenoxy)-3-(isobutylamino)-propan-2-ol], the Ki worked out at 854 nM.

For the compound `Nc1cnc(-c2ccc(C3CCC3)c(OCc3ccccc3OC(F)(F)F)c2F)cn1` [Example 8, 5-(4-Cyclobutyl-2-fluoro-3-{[2-(trifluoromethoxy)benzyl]oxy}phenyl)-pyrazin-2-amine], the Ki came to 750 nM.

In the case of `CS(=O)(=O)c1cc(Cl)ccc1COc1c(C2CCC2)ccc(-c2cnc(N)cn2)c1F` [Example 11, 5-(3-{[4-Chloro-2-(methylsulfonyl)benzyl]oxy}-4-cyclobutyl-2-fluorophenyl)pyrazin-2-amine], the Ki came to 750 nM.

On to `Nc1cnc(-c2ccc(C3CCC3)c(OCc3cccc(Cl)c3Cl)c2F)cn1` [Example 39, 5-{4-Cyclobutyl-3-[(2,3-dichlorobenzyl)oxy]-2-fluorophenyl}pyrazin-2-amine], for which the Ki was 750 nM.

Regarding `Nc1cnc(-c2ccc(C3CCC3)c(OCc3nc(C4CC4)no3)c2F)cn1` [Example 48, 5-{4-Cyclobutyl-3-[(3-cyclopropyl-1,2,4-oxadiazol-5-yl)methoxy]-2-fluorophenyl}pyrazin-2-amine], the Ki was 12 nM.

In the case of `CS(=O)(=O)N1CCC(COc2c(C3CCC3)ccc(-c3cnc(N)cn3)c2F)CC1` [Example 68, 5-(4-Cyclobutyl-2-fluoro-3-{[1-(methylsulfonyl)piperidin-4-yl]methoxy}phenyl)pyrazin-2-amine], the Ki amounted to 750 nM.

On to `CC(C)(C)OC(=O)N1CCC(COc2c(C3CCC3)ccc(-c3cnc(N)cn3)c2F)CC1` [Example 74, tert-Butyl 4-{[3-(5-aminopyrazin-2-yl)-6-cyclobutyl-2-fluorophenoxy]methyl}piperidine-1-carboxylate], for which the Ki was found to be 750 nM.

Consider `N#Cc1ccc(Oc2c(C3CCC3)ccc(-c3cnc(N)cn3)c2F)nc1` [Example 114, 6-[3-(5-Aminopyrazin-2-yl)-6-cyclobutyl-2-fluorophenoxy]pyridine-3-carbonitrile], for which the Ki was 17.2 nM.

On to `CS(=O)(=O)c1ccc(Oc2c(C3CCC3)ccc(-c3cnc(N)cn3)c2F)cc1` [Example 116, 5-{4-Cyclobutyl-2-fluoro-3-[4-(methylsulfonyl)phenoxy]phenyl}pyrazin-2-amine], for which the Ki was 14.6 nM.

For `NC(=O)c1ccc(Oc2c(C3CCC3)ccc(-c3cnc(N)cn3)c2F)cc1` [Example 155, 4-[3-(5-Aminopyrazin-2-yl)-6-cyclobutyl-2-fluorophenoxy]benzamide], the Ki stood at 4.1 nM.

With `COc1c(C2CCC2)ccc(-c2cc3cc[nH]c3nn2)c1F` [Example 197, 3-(4-cyclobutyl-2-fluoro-3-methoxyphenyl)-7H-pyrrolo[2,3-c]pyridazine], the inhibitory constant (Ki) stood at 750 nM.

Turning to `COc1c(C2CCC2)ccc(-c2cnc3c(c2)CCN3)c1F` [Example 198, 5-(4-cyclobutyl-2-fluoro-3-methoxyphenyl)-2,3-dihydro-1H-pyrrolo[2,3-b]pyridine], the Ki was 18.7 nM.

Take `CC(C)(C)c1ccc(-c2cnc(N)cn2)c(F)c1Oc1cc(N)ncn1` [Example 202, 6-[3-(5-Aminopyrazin-2-yl)-6-tert-butyl-2-fluorophenoxy]pyrimidin-4-amine]: the Ki was 6.1 nM.

In the case of `N#Cc1nc(-c2ccc(C3CCC3)c(O)c2F)cnc1N` [Example 222, 3-amino-6-(4-cyclobutyl-2-fluoro-3-hydroxyphenyl)pyrazine-2-carbonitrile], the Ki came to 180 nM.

Regarding `COc1cc(Oc2c(C3CCC3)ccc(-c3cnc4[nH]ccc4c3)c2F)ncn1` [Example 228, 5-(4-cyclobutyl-2-fluoro-3-((6-methoxypyrimidin-4-yl)oxy)phenyl)-1H-pyrrolo[2,3-b]pyridine], the Ki worked out at 24.4 nM.

For the compound `CC(C)(C)OC(=O)N1CCC(COc2c(C3CCC3)ccc(-c3cnc(N)cn3)c2F)C1` (stereo not shown) [Example 247, tert-butyl 3-((3-(5-aminopyrazin-2-yl)-6-cyclobutyl-2-fluoro-phenoxy)methyl)pyrrolidine-1-carboxylate], the inhibition constant (Ki) worked out at 259 nM.

For the compound `Nc1cnc(-c2ccc(C3CCC3)c(OCCCC(=O)O)c2F)cn1` [Example 251, 4-(3-(5-Aminopyrazin-2-yl)-6-cyclobutyl-2-fluorophenoxy)butanoic acid], the Ki was found to be 1200 nM.

`Nc1cnc(-c2ccc(C3CCC3)c(Oc3cnc4cc(F)c(F)cc4n3)c2F)cn1` [Example 271, 5-{4-Cyclobutyl-3-[(6,7-difluoroquinoxalin-2-yl)oxy]-2-fluorophenyl}pyrazin-2-amine]: the Ki came out at 5.1 nM.

On to `Nc1cnc(-c2ccc(C3CCC3)c(Oc3nc4ncccc4s3)c2F)cn1` [Example 330, 5-(4-Cyclobutyl-2-fluoro-3-(thiazolo[4,5-b]pyridin-2-yloxy)phenyl)pyrazin-2-amine], for which the Ki turned out to be 5.1 nM.
